For the test, the target named is eIF4E (Homo sapiens (Human), UniProt P06730). Put plainly: TR-FRET assay for competitive binding of cap analogs to eIF4E. To be noted: N^7-alkylated GMP derivatives; competition with capped 7mGDP mRNA-biotin; single measurement unless footnoted as average. (In general: Time-resolved FRET reads energy transfer from a long-lived donor to a nearby acceptor.)

Sequences of proteins named here, by UniProt entry; tags and fusion partners are left off.
UniProt P06730, whole entry: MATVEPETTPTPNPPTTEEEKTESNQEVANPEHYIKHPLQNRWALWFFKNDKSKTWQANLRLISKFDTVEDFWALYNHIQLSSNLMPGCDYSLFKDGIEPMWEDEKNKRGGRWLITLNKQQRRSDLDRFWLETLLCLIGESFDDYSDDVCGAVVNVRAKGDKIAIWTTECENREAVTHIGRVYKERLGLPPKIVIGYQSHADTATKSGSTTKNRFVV

Where only a bound is given, the exact number is not on record here.

We go through 3 molecules from patent US10676499B2, “3′ end caps, 5′ end caps and combinations thereof for therapeutic RNA” (NOVARTIS AG, priority 2014, dated 2020).

The term AC50 denotes the midpoint of the concentration-response curve, whichever way the signal moves. A lower AC50 goes with greater potency. `Nc1nc([O-])c2c(n1)n([C@@H]1O[C@H](COP(=O)(O)O)[C@@H](O)[C@H]1O)c[n+]2CC(=O)OCc1ccccc1` returned a half-maximal activity concentration (AC50) of over 100 µM.

`Nc1nc([O-])c2c(n1)n([C@@H]1O[C@H](COP(=O)(O)O)[C@@H](O)[C@H]1O)c[n+]2C/C=C/c1ccccc1`: the AC50 is over 100 µM.

`Nc1nc([O-])c2c(n1)n([C@@H]1O[C@H](COP(=O)(O)O)[C@@H](O)[C@H]1O)c[n+]2CC(=O)Nc1cccc(Cl)c1` registered an AC50 of over 100 µM.
